Antibody variant affinities, Ab-91 heavy chain, assay 2

Target: peptide PDVDLGDISGINAS, taken from heptad repeat 2 (HR2) of SARS-CoV-2 spike.

Parent: Ab-91, a human scFv built as VL, a 15-residue (Gly4Ser)3 linker, VH. Only the CDRs of the heavy chain vary.
VL: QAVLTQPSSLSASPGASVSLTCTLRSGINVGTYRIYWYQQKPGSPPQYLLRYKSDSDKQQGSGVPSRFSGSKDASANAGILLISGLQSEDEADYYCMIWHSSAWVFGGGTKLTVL
VH: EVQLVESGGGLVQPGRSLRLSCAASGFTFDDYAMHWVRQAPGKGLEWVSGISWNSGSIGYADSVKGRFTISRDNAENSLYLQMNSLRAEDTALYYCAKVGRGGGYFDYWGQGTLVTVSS

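Phage display of a naive human antibody library on the peptide gave the parent. Variants in AAYL51 differ from the parent at up to three CDR positions; double and triple changes were sampled at random. The scFvs were displayed on barcoded MATa yeast, the peptide on MATalpha yeast. After mating in shaken culture at 30 °C for 16 h, diploids were selected and their barcode pairs sequenced. A regression on co-assayed BCL2-family reference pairs converts the normalised counts of each replicate to an apparent Kd. The assay was run in three technical replicates.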

Substitutions are numbered in sequence along the VH above, starting at 1 (not Kabat). This list gathers variants with a substitution at D31 (VH, numbered from residue 1). Scale: log10 of Kd in nM, estimated from mating counts; low values are strong binders. Averages over replicates are reported, and they cover detected replicates only. "nd" marks a missing value. The strain was present, yet no cells mated with the target were sequenced in any replicate, which points to weak or no binding. Parent in this assay: reference entry 1.86, copy in this library 0.88.

Variant D30Y/D31N/W53V gave 1.04 (3 of 3 replicates; controls 4 of 9). For D31E/G103P, the assay gave 1.12 (3 of 3 replicates; controls 1 of 9). Variant D31C/A61P/D107S showed nd (0 of 3 replicates; controls 1 of 9). For D30F/D31K/Y60H, the assay gave nd (0 of 3 replicates; controls 1 of 9). Variant D31S/H35K/R101G gave nd (0 of 3 replicates; controls 0 of 9). For D31M/Y60G/Y108A, the assay gave 4.14 (2 of 3 replicates; controls 3 of 9).

Variant D31T/R101A/Y105A showed nd (0 of 3 replicates; controls 2 of 9). Variant D31Q/N54V/S55K showed nd (0 of 3 replicates; controls 1 of 9). Variant D31E/M34P/V64H gave 4.35 (1 of 3 replicates; controls 2 of 9). With F27L/D31Y/W53K the result was 5.73 (1 of 3 replicates; controls 1 of 9). Variant D31L/K65C/G103D gave 2.32 (1 of 3 replicates; controls 0 of 9). For F29V/D31K/V64R, the assay gave nd (0 of 3 replicates; controls 1 of 9).

Variant T28N/D31F/Y60F gave nd (0 of 3 replicates; controls 0 of 9). Variant D31P/R101I/G102F showed 2.86 (1 of 3 replicates; controls 0 of 9). With D31V/G56L the result was 1.25 (3 of 3 replicates; controls 2 of 9). With D31E/R101P the result was 1.77 (3 of 3 replicates; controls 0 of 9). For D31E/G56Q/Y108A, the assay gave 0.68 (3 of 3 replicates; controls 2 of 9). For D31V/A61G/V64A, the assay gave 2.99 (3 of 3 replicates; controls 1 of 9).

For D31Q/G59Y/D62A, the assay gave 4.97 (1 of 3 replicates; controls 1 of 9). For F29G/D31M/G50W, the assay gave nd (0 of 3 replicates; controls 0 of 9). With D30I/D31G/Y32H the result was nd (0 of 3 replicates; controls 0 of 9). With D31R/R101N/G104L the result was 3.75 (1 of 3 replicates; controls 1 of 9). Variant D31Q/H35F/G56M gave nd (0 of 3 replicates; controls 1 of 9). For D31Q/Y60A/S63Q, the assay gave 2.03 (3 of 3 replicates; controls 0 of 9).

For D31I/S55L/S57Q, the assay gave 5.67 (1 of 3 replicates; controls 6 of 9). Variant D31P/Y60S/Y105K gave nd (0 of 3 replicates; controls 1 of 9). Variant F29D/D31A showed nd (0 of 3 replicates; controls 0 of 9). For T28A/D31M/V99I, the assay gave -0.15 (3 of 3 replicates; controls 1 of 9). Variant F29Q/D31V/Y105M gave 3.58 (1 of 3 replicates; controls 0 of 9). For D31L/S57K/Y108P, the assay gave 4.70 (2 of 3 replicates; controls 1 of 9).

Variant D31T/W53L gave 4.99 (1 of 3 replicates; controls 0 of 9). Variant F27D/D31N/K65L showed 4.87 (2 of 3 replicates; controls 5 of 9). For D31R/M34D/G100E, the assay gave 3.84 (1 of 3 replicates; controls 2 of 9). Variant D31R/R101C/Y105A gave 0.92 (3 of 3 replicates; controls 6 of 9). Variant D31F gave 0.54 (3 of 3 replicates; controls 0 of 9).

Excerpt, the first 4 entries:

D30Y/D31N/W53V: 1.04 (3 of 3 replicates; controls 4 of 9).
D31E/G103P: 1.12 (3 of 3 replicates; controls 1 of 9).
D31C/A61P/D107S: nd (0 of 3 replicates; controls 1 of 9).
D30F/D31K/Y60H: nd (0 of 3 replicates; controls 1 of 9).

Nonspecific signal, from three strains lacking the peptide, appeared in 21% of pairings of library AAYL51, centred on 4.54 (5% of these signals below 3.26); values are not corrected for it. For each scFv, signals with the empty controls are counted beside the result.

Values reported by Engelhart et al. 2022, doi:10.1038/s41597-022-01779-4 (FLAb copy).